Results as given in ChEMBL document CHEMBL5653606 (J Pharmacol Exp Ther, 2011).

Protein sequences, listed by entry. Tags and fused reporters are not part of them.
UniProt P97612, whole entry: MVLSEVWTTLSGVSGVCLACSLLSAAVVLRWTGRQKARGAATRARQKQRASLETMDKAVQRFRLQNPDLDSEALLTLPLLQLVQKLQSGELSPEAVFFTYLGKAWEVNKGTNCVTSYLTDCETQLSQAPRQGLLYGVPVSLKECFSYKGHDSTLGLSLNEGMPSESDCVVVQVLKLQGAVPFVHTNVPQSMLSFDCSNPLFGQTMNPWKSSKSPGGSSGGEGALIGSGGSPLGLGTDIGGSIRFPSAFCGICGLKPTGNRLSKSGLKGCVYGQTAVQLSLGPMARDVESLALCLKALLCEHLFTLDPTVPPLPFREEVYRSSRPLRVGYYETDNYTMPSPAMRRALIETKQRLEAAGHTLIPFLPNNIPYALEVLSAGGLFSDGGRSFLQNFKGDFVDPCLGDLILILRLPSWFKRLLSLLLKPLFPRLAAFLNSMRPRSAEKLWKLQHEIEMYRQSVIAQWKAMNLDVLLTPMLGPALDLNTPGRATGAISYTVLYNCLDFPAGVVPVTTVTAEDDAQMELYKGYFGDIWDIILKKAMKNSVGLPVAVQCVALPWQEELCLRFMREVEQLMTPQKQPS

Assays:
Format in all cases: functional, organism-based
[1] = target: Fatty-acid amide hydrolase 1 (Rattus norvegicus) (UniProt P97612); test: In vivo inhibition of FAAH in CFA induced Sprague-Dawley rat brain assessed as elevation of OEA level at 1 mg/kg, po measured for 1 to 24 hrs; settings: time 1-24 hrs
[2] = target: Fatty-acid amide hydrolase 1 (Rattus norvegicus) (UniProt P97612); test: In vivo inhibition of FAAH in CFA induced Sprague-Dawley rat plasma assessed as elevation of AEA level at 1 mg/kg, po using 3H-labeled AEA as substrate measured for 1 to 24 hrs; settings: time 1-24 hrs
[3] = target: Fatty-acid amide hydrolase 1 (Rattus norvegicus) (UniProt P97612); test: In vivo inhibition of FAAH in CFA induced Sprague-Dawley rat brain assessed as elevation of AEA level at 0.1 to 10 mg/kg, po using 3H-labeled AEA as substrate; settings: dose 0.1-10 mg/kg
[4] = target: Fatty-acid amide hydrolase 1 (Rattus norvegicus) (UniProt P97612); test: In vivo inhibition of FAAH in CFA induced Sprague-Dawley rat brain assessed as elevation of PEA level at 1 mg/kg, po measured for 1 to 24 hrs; settings: time 1-24 hrs
[5] = target: Fatty-acid amide hydrolase 1 (Rattus norvegicus) (UniProt P97612); test: In vivo inhibition of FAAH in CFA induced Sprague-Dawley rat brain assessed as elevation of AEA level at 1 mg/kg, po using 3H-labeled AEA as substrate measured for 1 to 24 hrs; settings: time 1-24 hrs
[6] = target: Fatty-acid amide hydrolase 1 (Rattus norvegicus) (UniProt P97612); test: In vivo inhibition of FAAH in CFA induced Sprague-Dawley rat brain assessed as elevation of PEA level at 0.1 to 10 mg/kg, po; settings: dose 0.1-10 mg/kg
[7] = target: Fatty-acid amide hydrolase 1 (Rattus norvegicus) (UniProt P97612); test: In vivo inhibition of FAAH in CFA induced Sprague-Dawley rat plasma assessed as elevation of AEA level at 0.1 to 10 mg/kg, po using 3H-labeled AEA as substrate; settings: dose 0.1-10 mg/kg
[8] = target: Fatty-acid amide hydrolase 1 (Rattus norvegicus) (UniProt P97612); test: In vivo inhibition of FAAH in CFA induced Sprague-Dawley rat brain assessed as elevation of OEA level at 0.1 to 10 mg/kg, po; settings: dose 0.1-10 mg/kg

With `O=C(Nc1cccnn1)N1CCC(=Cc2cccc(Oc3ccc(C(F)(F)F)cn3)c2)CC1` the fold change (FC) [1] was 8, the fold change (FC) [2] was 3 and the fold change (FC) [3] was 5. For the same molecule, the fold change (FC) [4] was 8, the fold change (FC) [5] was 5 and the fold change (FC) [6] was 8. The fold change (FC) [7] was 3 and the fold change (FC) [8] was 8.
